One molecule from PMC3199867, “Targeting surface nucleolin with multivalent HB-19 and related Nucant pseudopeptides results in distinct inhibitory mechanisms depending on the malignant tumor cell type” (BMC Cancer, 2011) can be followed below.

Molecules are shown by their SMILES.

Holding throughout (assay type): cell-based, human
Test [1] deals with HeLa. As to the kind of experiment: Cell growth (viable cell number). The conditions noted are these: N6L 10 μM, viable cell number vs untreated control, mean of at least 2 independent experiments. As for the experimental part:
(§1) Human breast (MDA-MB-231, MDA-MB-435 [37]), prostate (LNCaP, from American Type Culture Collection, ATCC, Rockville, MD), and cervical (HeLa) epithelial cancer cells were grown in DMEM-glutamax medium (Gibco Invitrogen, Cergy-Pontoise, France) containing GlutaMAX™, 4.5 g/l glucose and supplemented with 10% heat-inactivated (56°C for 30 min) fetal bovine serum (FBS; Hyclone, Thermo Fisher Scientific, Inc). Human SW480 cells are derived from a grade 3-4 colon carcinoma, while the highly metastatic counterpart SW620 is established from the lymph node of a person. Both SW480 and SW620 cells (obtained from Francis Raul, IRCAD) are highly tumorigenic in nude mice. They were cultured in D-MEM, 10% FCS. The murine melanoma TIII cell line was obtained from Armelle Prévost-Blondel. Murine T29 lymphoma cells, obtained from Philippe Kastner (CNRS, Strasbourg), have been established from Ik^L/L tumors from mice carrying a hypomorphic mutation (Ik^L/L) in the Ikaros gene encoding a transcription factor that regulates lymphocyte differentiation, and acts also as a tumor suppressor in T lymphocytes. The T29 cells were cultured in RPMI medium containing 25 mM Hepes pH 7.6, 1 mM sodium pyruvate, and 10% FCS. Human leukemia cell lines, Jurkat (acute T cell leukemia), HuT 78 (cutaneous T lymphocyte), RAJI (Burkitt lymphoma), and HL60 (promyelocytic leukemia) were cultured in RPMI-1640 medium (Gibco) containing GlutaMAX™, and supplemented with 10% heat-inactivated FBS as described before. The wild-type Chinese hamster ovary cell line (CHO K1) was purchased from American Type Culture Collection (ATCC; Rockville, MD). The CHO LRP1-null cell line (CHO-13-5-1) was kindly provided by D. Strickland [47]. They were cultured in Ham's F12K medium. All cells were cultured with 10% (v/v) heat inactivated (56°C, 30 min) fetal bovine serum (FBS) (Roche Molecular Biochemicals, Indianapolis, IN) and 50 international units/mL penicillin-streptomycin (Invitrogen). Cell death was monitored conveniently by uptake of the trypan blue dye due to plasma membrane permeability of dying and/or dead cells.

The test system of test [2] is MDA-MB 435. As to the kind of experiment: Cell growth (viable cell number). The conditions noted are these: N6L 10 μM, viable cell number vs untreated control, mean of at least 2 independent experiments. As for the experimental part:
as §1

The test system of test [3] is Jurkat. Briefly: Cell growth (viable cell number). The conditions noted are these: N6L 10 μM, viable cell number vs untreated control, mean of at least 2 independent experiments. As for the experimental part:
as §1

For test [4], the system named is HuT 78. Briefly: Cell growth (viable cell number). The conditions noted are these: N6L 10 μM, viable cell number vs untreated control, mean of at least 2 independent experiments. As for the experimental part:
as §1

Test [5] deals with RAJI. Briefly: Cell growth (viable cell number). The conditions noted are these: N6L 10 μM, viable cell number vs untreated control, mean of at least 2 independent experiments. As for the experimental part:
as §1

The subject of test [6] is HL60. As to the kind of experiment: Cell growth (viable cell number). The conditions noted are these: N6L 10 μM, viable cell number vs untreated control, mean of at least 2 independent experiments. As for the experimental part:
as §1

Test [7] relates to LNCaP. As to the kind of experiment: Cell growth (viable cell number). The conditions noted are these: N6L 10 μM, viable cell number vs untreated control, mean of at least 2 independent experiments. As for the experimental part: as §1
Test [8] concerns MDA-MB 231. Briefly: Cell growth (viable cell number). The conditions noted are these: N6L 10 μM, viable cell number vs untreated control, mean of at least 2 independent experiments. As for the experimental part:
as §1

The test system of test [9] is HuT 78. As to the kind of experiment: Cell death (trypan blue uptake). The conditions noted are these: HuT 78, freshly passaged, N6L 10 μM, mean of at least 2 independent experiments. As for the experimental part:
as §1, with “Human leukemia cell lines, Jurkat (acute T cell leukemia), HuT 78 (cutaneous T lymphocyte), RAJI (Burkitt lymphoma), and HL60 (promyelocytic leukemia) were cultured in RPMI-1640 medium (Gibco) containing GlutaMAX™, and supplemented with 10% heat-inactivated FBS as described before. The wild-type Chinese hamster ovary cell line (CHO K1) was purchased from American Type Culture Collection (ATCC; Rockville, MD). The CHO LRP1-null cell line (CHO-13-5-1) was kindly provided by D. Strickland [47]. They were cultured in Ham's F12K medium. All cells were cultured with 10% (v/v) heat inactivated (56°C, 30 min) fetal bovine serum (FBS) (Roche Molecular Biochemicals, Indianapolis, IN) and 50 international units/mL penicillin-streptomycin (Invitrogen).” left out, “cells. […]” for “cells.”

In test [10] the test system is SW480 and SW620 cells. Briefly: Spreading of colon carcinoma cells (microscopy). The conditions noted are these: 10 μM, 3 days. As for the experimental part: SW420 (in section A; phase contrast images) and SW620 (in section B, immunofluorescence images) cells were cultured in the presence of 10 μM N6L for 3 days before analysis (Methods). […] The images were taken at 100- and 1000-fold magnification in section A and B, respectively.

Turning to `CC(=O)N[C@@H](CCCCNC(=O)[C@H](CCCNC(=N)N)NC(=O)[C@@H]1CCCN1C[C@@H](N)CCCCN)C(=O)NC(C)(C)C(=O)NCC(=O)N[C@@H](CCCCNC(=O)[C@H](CCCNC(=N)N)NC(=O)[C@@H]1CCCN1C[C@@H](N)CCCCN)C(=O)NC(C)(C)C(=O)NCC(=O)N[C@@H](CCCCNC(=O)[C@H](CCCNC(=N)N)NC(=O)[C@@H]1CCCN1C[C@@H](N)CCCCN)C(=O)NC(C)(C)C(=O)NCC(=O)N[C@@H](CCCCNC(=O)[C@H](CCCNC(=N)N)NC(=O)[C@@H]1CCCN1C[C@@H](N)CCCCN)C(=O)NC(C)(C)C(=O)NCC(=O)N[C@@H](CCCCNC(=O)[C@H](CCCNC(=N)N)NC(=O)[C@@H]1CCCN1C[C@@H](N)CCCCN)C(=O)NC(C)(C)C(=O)NCC(=O)N[C@@H](CCCCNC(=O)[C@H](CCCNC(=N)N)NC(=O)[C@@H]1CCCN1C[C@@H](N)CCCCN)C(=O)NC(C)(C)C(=O)NCC(N)=O` [Nucant N6L], the “% Growth inhibition After 3 days” value in [1] is recorded as 60%; in [2], 66%; in test [3], 85%; in [4], 83%; in [5], 95%; in [6] it was 80%. For the same molecule, the figures for the “% Growth inhibition After 3 days” value in test [7] and in test [8] were 90% and 95%, respectively. In addition, the “% Cell death After 24 hours” value in test [9] was 55%. In addition, in [10], the “phenotypic change / spreading” value was “typical circular colonies instead of spreading and growing in several layers”.
